Here are results for 14 sequences from patent US20220401514A1, “ANTIMICROBIAL, BACTERIOPHAGE-DERIVED POLYPEPTIDES AND THEIR USE AGAINST GRAM-NEGATIVE AND ACID-FAST BACTERIA” (CONTRAFECT CORPORATION, priority 2019, published 2022).

Data set [1] can be described thus: Stability assessment in 100% CAA. Format: in vitro ADME. The note with it: incubation in 100% CAA at 37° C.
Data set [2] concerns human red blood cells. The data set is described as follows: Hemolytic activity, minimal hemolytic concentration (MHC). The class given is cell-based. Conditions: human red blood cells.
A short description of data set [3]: Stability assessment in rabbit serum. The class given is in vitro ADME. Conditions: incubation in rabbit serum at 37° C.
Data set [4] is described as follows: Stability assessment: fold change in MIC after incubation in 100% human serum. The class given is in vitro ADME. The note with it: for stability (fold change in MIC) in 100% human serum: 37° C., 1 hour, and 2 hours; for Fold change in MIC: incubation in 100% human serum at 37° C.

As to “MMKYRKKMSAKSSRKQFTKGAMKVKGKNFTKPMRGGIRL [Unp5]”, the “Fold change in MIC (100% CAA)” value was 1 in data set [1] (10 min.), 1 in data set [1] (1 hour) and 0.5 in data set [1] (2 hours). Moreover, the “Minimal hemolytic concentration (MHC)” value in data set [2] was above 128 µg/mL. Besides, the “Fold Change in MIC (rabbit serum)” value in data set [3] (10 min.) was found to be 1; in data set [3] (1 hour), 1; in data set [3] (2 hours), 0.5. In addition, the “stability (fold change in MIC) in 100% human serum” value in data set [4] (10 minutes) was “adequately stable”. The “Fold change in MIC” value was determined as 1 in data set [4] (10 minutes), 1 in data set [4] (1 hour) and 4 in data set [4] (2 hours).

For “MRKRMSKRVDKKVFRRTAASAKKINIDPKIYRGGIRL [Osp1]”, the “Fold change in MIC (100% CAA)” value in data set [1] (10 min.) is 2; in data set [1] (1 hour) it was 1; in data set [1] (2 hours), 0.5. In data set [2], the “Minimal hemolytic concentration (MHC)” value was above 128 µg/mL. In addition, the “Fold Change in MIC (rabbit serum)” value in data set [3] (10 min.) worked out at 1; in data set [3] (1 hour), 1; in data set [3] (2 hours), 0.5. For the same sequence, the “stability (fold change in MIC) in 100% human serum” value in data set [4] (10 minutes) is given as “adequately stable”. In addition, the “Fold change in MIC” value is 1 in data set [4] (10 minutes), 0.5 in data set [4] (1 hour) and 1 in data set [4] (2 hours).

In the case of “MRLKMARRRYRLPRRRSRRLFSRTALRMHPRNRLRRIMRGGIRF”, the “Fold change in MIC (100% CAA)” value in data set [1] (10 min.) is recorded as 1; in data set [1] (1 hour), 0.5; in data set [1] (2 hours), 0.5. The “Minimal hemolytic concentration (MHC)” value in data set [2] was above 128 µg/mL. The results for the “Fold Change in MIC (rabbit serum)” value in data set [3] (10 min.), in data set [3] (1 hour) and in data set [3] (2 hours) were 1, 2 and 2, respectively. Also, the “stability (fold change in MIC) in 100% human serum” value in data set [4] (10 minutes) is “adequately stable”. For the same sequence, the “Fold change in MIC” value in data set [4] (10 minutes) was determined as 1; in data set [4] (1 hour), 1; in data set [4] (2 hours), 2.

On to “MRRKKMSRGKSKKLFRRTAKRVHRKNLRARPMRGGIRM [AVQ206]”, for which the “Fold change in MIC (100% CAA)” value in data set [1] (10 min.) was determined as 1; in data set [1] (1 hour) it was 2; in data set [1] (2 hours), 0.5. For the same sequence, the “Minimal hemolytic concentration (MHC)” value in data set [2] is above 128 µg/mL. In addition, the “Fold Change in MIC (rabbit serum)” value in data set [3] (10 min.), in data set [3] (1 hour) and in data set [3] (2 hours) was 1 in each case. Besides, in data set [4] (10 minutes), the “stability (fold change in MIC) in 100% human serum” value is “adequately stable”. Besides, the “Fold change in MIC” value in data set [4] (10 minutes), in data set [4] (1 hour) and in data set [4] (2 hours) was 1 each time.

For the sequence MRRKVKNTKRHQWRLTHSARSIKRANIMPSNPRGGRRF, the “Fold change in MIC (100% CAA)” value is on record as 1 in data set [1] (10 min.), 1 in data set [1] (1 hour) and 0.5 in data set [1] (2 hours). Besides, the “Minimal hemolytic concentration (MHC)” value in data set [2] was above 128 µg/mL. The “Fold Change in MIC (rabbit serum)” value in data set [3] (10 min.), in data set [3] (1 hour) and in data set [3] (2 hours) was 1 each time. For the same sequence, in data set [4] (10 minutes), the “stability (fold change in MIC) in 100% human serum” value is “adequately stable”. Moreover, the “Fold change in MIC” value in data set [4] (10 minutes), in data set [4] (1 hour) and in data set [4] (2 hours) was 1 in each case.

Take “MRRPRKMNYKKSKRMFSRTAARTHRKNSLRGSRPMRGGIRL [Gkh1]”: the “Fold change in MIC (100% CAA)” value in data set [1] (10 min.) came out at 1; in data set [1] (1 hour), 0.5; in data set [1] (2 hours), 0.5. The “Minimal hemolytic concentration (MHC)” value in data set [2] is above 128 µg/mL. For the same sequence, the figures for the “Fold Change in MIC (rabbit serum)” value in data set [3] (10 min.), in data set [3] (1 hour) and in data set [3] (2 hours) were 1, 0.5 and 0.5, respectively. The “stability (fold change in MIC) in 100% human serum” value in data set [4] (10 minutes) was “adequately stable”. Also, the “Fold change in MIC” value in data set [4] (10 minutes) is 1; in data set [4] (1 hour), 0.5; in data set [4] (2 hours), 1.

As to “MRRRRLSRRTSRRFFRKGLKVRRRNLRARPMRGGFRI [Unp2]”, the “Fold change in MIC (100% CAA)” value in data set [1] (10 min.), in data set [1] (1 hour) and in data set [1] (2 hours) was 1 in each case. Besides, the “Minimal hemolytic concentration (MHC)” value in data set [2] was above 128 µg/mL. Further, the “Fold Change in MIC (rabbit serum)” value in data set [3] (10 min.) worked out at 1; in data set [3] (1 hour), 2; in data set [3] (2 hours), 2. Besides, the “stability (fold change in MIC) in 100% human serum” value in data set [4] (10 minutes) was “adequately stable”. Besides, the “Fold change in MIC” value in data set [4] (10 minutes) stood at 1; in data set [4] (1 hour), 2; in data set [4] (2 hours) it was 1.

On to “MRRYNVNKGKSAKKFRKQVSKTKVANLRSNPMRGGWRL [AGT915]”, for which the “Fold change in MIC (100% CAA)” value in data set [1] (10 min.) turned out to be 1; in data set [1] (1 hour) it was 2; in data set [1] (2 hours), 0.5. In data set [2], the “Minimal hemolytic concentration (MHC)” value was above 128 µg/mL. Besides, the “Fold Change in MIC (rabbit serum)” value in data set [3] (10 min.), in data set [3] (1 hour) and in data set [3] (2 hours) was 1 each time. For the same sequence, the “stability (fold change in MIC) in 100% human serum” value in data set [4] (10 minutes) is on record as “adequately stable”. Besides, the entries for the “Fold change in MIC” value in data set [4] (10 minutes), in data set [4] (1 hour) and in data set [4] (2 hours) were 1, 1 and 0.5, respectively.

Take “MRRYNVNKGKSAKKFRKQVSKTKVANLRSNPMRGGWRL [Unp6]”: the “Fold change in MIC (100% CAA)” value in data set [1] (10 min.) came out at 1; in data set [1] (1 hour), 1; in data set [1] (2 hours), 0.5. Also, in data set [2], the “Minimal hemolytic concentration (MHC)” value was above 128 µg/mL. For the same sequence, the “Fold Change in MIC (rabbit serum)” value in data set [3] (10 min.), in data set [3] (1 hour) and in data set [3] (2 hours) was 1 throughout. Moreover, the “stability (fold change in MIC) in 100% human serum” value in data set [4] (10 minutes) is “adequately stable”. For the same sequence, the “Fold change in MIC” value in data set [4] (10 minutes), in data set [4] (1 hour) and in data set [4] (2 hours) was 1 in each case.

Turning to “MSKKASRKSFTKGAVKVHKKNVPTRVPMRGGIRL [Gkh2]”, the entries for the “Fold change in MIC (100% CAA)” value in data set [1] (10 min.), in data set [1] (1 hour) and in data set [1] (2 hours) were 1, 0.5 and 0.5, respectively. Besides, the “Minimal hemolytic concentration (MHC)” value in data set [2] was above 128 µg/mL. The “Fold Change in MIC (rabbit serum)” value in data set [3] (10 min.), in data set [3] (1 hour) and in data set [3] (2 hours) was 1 each time. The “stability (fold change in MIC) in 100% human serum” value in data set [4] (10 minutes) is on record as “adequately stable”. Moreover, the “Fold change in MIC” value in data set [4] (10 minutes) is listed as 1; in data set [4] (1 hour), 0.5; in data set [4] (2 hours) it was 2.

With “MSKKRSRMSRRRSKKLFSKTALRTKSVNTRPPMRGGFRF [Chp8]”, the “Fold change in MIC (100% CAA)” value in data set [1] (10 min.) worked out at 1; in data set [1] (1 hour) it was 0.5; in data set [1] (2 hours), 0.5. For the same sequence, the “Minimal hemolytic concentration (MHC)” value in data set [2] was above 128 µg/mL. In addition, the “Fold Change in MIC (rabbit serum)” value in data set [3] (10 min.), in data set [3] (1 hour) and in data set [3] (2 hours) was 1 in each case. Besides, the “stability (fold change in MIC) in 100% human serum” value in data set [4] (10 minutes) is “adequately stable”. Moreover, the “Fold change in MIC” value in data set [4] (10 minutes), in data set [4] (1 hour) and in data set [4] (2 hours) was 1 in each case.

“MSLRRHKLSRKASKRIFRKGASRTKTLNTRATPMRGGFRI [Chp9]”: the “Fold change in MIC (100% CAA)” value in data set [1] (10 min.) is listed as 1; in data set [1] (1 hour), 0.5; in data set [1] (2 hours), 0.5. Moreover, the “Minimal hemolytic concentration (MHC)” value in data set [2] was above 128 µg/mL. Also, the “Fold Change in MIC (rabbit serum)” value in data set [3] (10 min.), in data set [3] (1 hour) and in data set [3] (2 hours) was 1 in each case. In addition, the “stability (fold change in MIC) in 100% human serum” value in data set [4] (10 minutes) is reported as “adequately stable”. For the same sequence, the “Fold change in MIC” value in data set [4] (10 minutes) was 1; in data set [4] (1 hour), 0.5; in data set [4] (2 hours), 0.5.

Turning to “MTKRDIEYRKALGLNPSEPLPKIVGAVTRHGATLKRPRVTALAR [SBR77]”, the “Fold change in MIC (100% CAA)” value in data set [1] (10 min.), in data set [1] (1 hour) and in data set [1] (2 hours) was 1 throughout. Also, the “Minimal hemolytic concentration (MHC)” value in data set [2] is above 128 µg/mL. Moreover, the “Fold Change in MIC (rabbit serum)” value in data set [3] (10 min.), in data set [3] (1 hour) and in data set [3] (2 hours) was 1 in each case. The “stability (fold change in MIC) in 100% human serum” value in data set [4] (10 minutes) was “adequately stable”. In addition, the “Fold change in MIC” value amounted to 1 in data set [4] (10 minutes), 4 in data set [4] (1 hour) and 1 in data set [4] (2 hours).

“MVRRRRLRRRISRRIFRRTVARVGRRRRSFRGGIRF [Chp1]”: the “Fold change in MIC (100% CAA)” value in data set [1] (10 min.), in data set [1] (1 hour) and in data set [1] (2 hours) was 1 in each case. The “Minimal hemolytic concentration (MHC)” value in data set [2] was above 128 µg/mL. In addition, the “Fold Change in MIC (rabbit serum)” value in data set [3] (10 min.) was found to be 1; in data set [3] (1 hour) it was 2; in data set [3] (2 hours), 2. The “stability (fold change in MIC) in 100% human serum” value in data set [4] (10 minutes) is “adequately stable”. For the same sequence, the “Fold change in MIC” value in data set [4] (10 minutes), in data set [4] (1 hour) and in data set [4] (2 hours) was 1 each time.
